The values below come from US20230213525A1, “DETECTING MICROBIAL INFECTION IN WOUNDS” (QUALIZYME DIAGNOSTICS GMBH & CO KG, priority 2016, published 2023).

The target in assay [1] is T1, Elastase (Homo sapiens, UniProt P08246).
T1 sequence (P08246 30-267): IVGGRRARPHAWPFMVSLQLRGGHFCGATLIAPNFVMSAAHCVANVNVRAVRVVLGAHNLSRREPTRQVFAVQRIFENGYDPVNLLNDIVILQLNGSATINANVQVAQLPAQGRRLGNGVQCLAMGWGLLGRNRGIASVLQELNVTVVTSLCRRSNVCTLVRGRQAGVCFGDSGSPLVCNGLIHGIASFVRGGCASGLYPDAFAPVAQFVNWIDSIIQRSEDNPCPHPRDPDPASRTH
Briefly: Elastase based test, liquid system, sputum. The note with it: infected sputum samples A, B, C; 2 µL, 1.0 mM substrate, 10 minutes. Type of assay: biochemical. On the procedure: This mixture is incubated at room temperature for 5 minutes.

In assay [2] the target is T1, Elastase. Kind of assay: Elastase based test, cellulose paper based system, sputum. The note with it: Whatman filter paper, 10 minutes.

For the substance “N-methoxysuccinyl-ala-ala-pro-val-p-nitroanilide”, the Test response result is given as “yellow” at Elastase [1]; “yellow” on Elastase [2] (infected sputum samples A, B); “No colour change” at Elastase [2] (non infected sputum samples C, D).
